This note sets out measurements from patent publication US20120115785A1 (MEDICAL COLLEGE OF GEORGIA RESEARCH INSTITUTE, published 2012).

The target in assay [1] is T1, Human β-actin (human, UniProt P60709 2-375). Briefly: purified G-actin and purified recombinant eNOS, immunoprecipitation with eNOS monoclonal antibody on protein G-agarose, Western blot.
In assay [2] the target is T1, Human β-actin. Briefly: F-actin binding spin-down assay, 10 µM peptide, 23 µM F-actin, SDS-PAGE, Coomassie Blue.
Assay [3] has as its target T1, Human β-actin. Description: F-actin binding spin-down assay, SDS-PAGE, Coomassie Blue.

B1: purified recombinant eNOS protein (human eNOSpCW) (enzyme)
chain: GNLKSVAQEPGPPCGLGLGLGLGLCGKQGPATPAPEPSRAPASLLPPAPEHSPPSSPLTQPPEGPKFPRVKNWEVGSITYDTLSAQAQQDGPCTPRRCLGSLVFPRKLQGRPSPGPPAPEQLLSQARDFINQYYSSIKRSGSQAHEQRLQEVEAEVAATGTYQLRESELVFGAKQAWRNAPRCVGRIQWGKLQVFDARDCRSAQEMFTYICNHIKYATNRGNLRSAITVFPQRCPGRGDFRIWNSQLVRYAGYRQQDGSVRGDPANVEITELCIQHGWTPGNGRFDVLPLLLQAPDDPPELFLLPPELVLEVPLEHPTLEWFAALGLRWYALPAVSNMLLEIGGLEFPAAPFSGWYMSTEIGTRNLCDPHRYNILEDVAVCMDLDTRTTSSLWKDKAAVEINVAVLHSYQLAKVTIVDHHAATASFMKHLENEQKARGGCPADWAWIVPPISGSLTPVFHQEMVNYFLSPAFRYQPDPWKGSAAKGTGITRKKTFKEVANAVKISASLMGTVMAKRVKATILYGSETGRAQSYAQQLGRLFRKAFDPRVLCMDEYDVVSLEHETLVLVVTSTFGNGDPPENGESFAAALMEMSGPYNSSPRPEQHKSYKIRFNSISCSDPLVSSWRRKRKESSNTDSAGALGTLRFCVFGLGSRAYPHFCAFARAVDTRLEELGGERLLQLGQGDELCGQEEAFRGWAQAAFQAACETFCVGEDAKAAARDIFSPKRSWKRQRYRLSAQAEGLQLLPGLIHVHRRKMFQATIRSVENLQSSKSTRATILVRLDTGGQEGLQYQPGDHIGVCPPNRPGLVEALLSRVEDPPAPTEPVAVEQLEKGSPGGPPPGWVRDPRLPPCTLRQALTFFLDITSPPSPQLLRLLSTLAEEPREQQELEALSQDPRRYEEWKWFRCPTLLEVLEQFPSVALPAPLLLTQLPLLQPRYYSVSSAPSTHPGEIHLTVAVLAYRTQDGLGPLHYGVCSTWLSQLKPGDPVPCFIRGAPSFRLPPDPSLPCILVGPGTGIAPFRGFWQERLHDIESKGLQPTPMTLVFGCRCSQLDHLYRDEVQNAQQRGVFGRVLTAFSREPDNPKTYVQDILRTELAAEVHRVLCLERGHMFVCGDVTMATNVLQTVQRILATEGDMELDEAGDVIGVLRDQQRYHEDIFGLTLRTQEVTSRIRTQSFSLQERQLRGAVPWAFDPPGSDTNSP
notes: also called purified eNOS
B1: the binding result in assay [1] was “binds”.
For the molecule LGLRWYAL (also called P326) [ABS peptide 326], the binding result in assay [2] is given as “binds”.
For AGARAYAA [control peptide for ABS peptide 326], the binding result in assay [2] is given as “binds”.
RKKTFKEVANA (also called P492) [ABS peptide 492]: the binding result in assay [3] is “no binding (tested: 10 µM peptide, 23 µM F-actin)”.
